Among the data in ChEMBL document CHEMBL1240443, “A study of cytotoxicity of novel chlorokojic acid derivatives with their antimicrobial and antiviral activities” (Eur J Med Chem, 2010) are MIC values, retold here.

This assay has as its system Pseudomonas aeruginosa. As to conditions: ATCC 10145.

One may read the MIC as the least concentration at which growth counts as inhibited. Lower therefore signals inhibition by little substance. GENTAMICIN showed an MIC of 0.5 µg/mL.
